Test results reported in patent publication US20060234237A1 (priority 2004, published 2006).

System: Colon cancer and a lung cancer cell lines
Assay: Modulation of biomarker expression by treatment with ligands for EGFR or inhibitors for EGFR (cell line not stated)
Format: cell-based, human
Details: treatment with EGFR inhibitor; 10% serum; 6 and 24 hours; two fold criterion vs untreated control

In the case of cetuximab [C225], the “Expression of spondin 1, talin 2 and nuclear receptor subfamily 3” value was “consistently down regulated”.
